Assay results: ChEMBL document CHEMBL3886217, “Process for preparing spirocyclic cyclohexane compounds, compositions containing such compounds and method of using such compounds” (2015)

By UniProt entry, the sequences of proteins in these tests, tags left out.
UniProt P35372, whole entry, looked up: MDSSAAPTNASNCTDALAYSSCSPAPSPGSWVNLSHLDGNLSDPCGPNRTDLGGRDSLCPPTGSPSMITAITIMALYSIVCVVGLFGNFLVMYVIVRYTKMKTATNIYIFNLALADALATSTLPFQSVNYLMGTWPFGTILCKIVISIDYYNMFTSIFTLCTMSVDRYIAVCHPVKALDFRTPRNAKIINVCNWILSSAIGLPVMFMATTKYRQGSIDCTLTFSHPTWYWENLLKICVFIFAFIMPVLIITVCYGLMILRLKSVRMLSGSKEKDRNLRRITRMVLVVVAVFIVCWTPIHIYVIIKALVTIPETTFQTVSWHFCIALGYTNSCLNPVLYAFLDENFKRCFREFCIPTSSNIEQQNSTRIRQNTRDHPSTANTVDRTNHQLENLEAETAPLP

Molecular target: Mu-type opioid receptor (Homo sapiens, UniProt P35372)
Assay: Binding Assay: The receptor affinity for the human mu-opiate receptor was determined in a homogeneous batch in microtitre plates. For this, dilution series of the particular spirocyclic cyclohexane derivative to be tested were incubated in a total volume of 250 ul for 90 minutes at room temperature with a receptor membrane preparation (15-40 ug protein per 250 ul incubation batch) of CHO-K1 cells,

| Structure (SMILES) | Ki |
| --- | --- |
| Cc1ccc2[nH]c3c(c2c1)CCNC31CCC(c2ccccc2)(N(C)C)CC1 (configuration not stated) | 15 nM |
| CN(C)C1(c2ccc(F)cc2)CCC2(CC1)c1sc3ccccc3c1CC[S+]2[O-] (configuration not stated) | 58 nM |
| CC(=O)N1CCc2c([nH]c3ccccc23)C12CCC(c1ccccc1)(N(C)C)CC2 (single isomer, unassigned) | 4.4 nM and 2.2 nM |
| CC1Cc2c([nH]c3ccc(Br)cc23)C2(CCC(c3ccccc3)(N(C)C)CC2)O1 (configuration not stated) | 14 nM |
| CN(C)C1(c2ccc(F)cc2)CCC2(CC1)OCCc1c2[nH]c2ccccc12 (configuration not stated) | 7.2 nM |
| CC1Cc2c([nH]c3ccc(F)cc23)C2(CCC(c3ccccc3)(N(C)C)CC2)O1 (configuration not stated) | 61 nM |
| CN(C)C1(c2ccccc2)CCC2(CC1)OCCc1c2[nH]c2ccc(Br)cc12 (configuration not stated) | 19 nM |

Values joined by “and” are separate entries in the source; they are usually repeats but may differ in a detail not shown here. Equal values may be shown once.
